The values below come from patent US20260364175A1, “COMPOSITIONS FOR DRUG ADMINISTRATION” (Aegis Therapeutics, LLC, priority 2018, published 2026).

Molecules are shown by their SMILES. Where a name gives a salt, the structure may show the parent alone.

The data set can be described thus: Octreotide pharmacokinetics after s.c. and oral delivery. To be noted: oral […] DDM, second peak; 1 mg/kg. The method, then: C prior to administration. […] Death is confirmed by cervical dislocation. […] Euthanasia is confirmed by cervical dislocation.
Pharmacokinetic analyses is carried out as follows.
Serum half-life (t1/2) is determined as follows.

On to `C[C@@H](O)[C@@H]1NC(=O)[C@H](CCCCN)NC(=O)[C@@H](Cc2c[nH]c3ccccc23)NC(=O)[C@H](Cc2ccccc2)NC(=O)[C@@H](NC(=O)[C@H](N)Cc2ccccc2)CSSC[C@@H](C(=O)N[C@H](CO)[C@@H](C)O)NC1=O` (relative stereo) [Octreotide, L-Cysteinamide, D-phenylalanyl-L-cysteinyl-L-phenylalanyl-D-tryptophyl-L-lysyl-L-threonyl-N-[2-hydroxy-1-(hydroxymethyl)propyl]-, cyclic (2→7)-disulfide; [R—(R*, R*)]acetate salt], for which the “t1/2 2” value amounted to 24.84 min.
